According to PubChem BioAssay (NCI):
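Five compound concentrations were applied to cells in 96-well plates for 48 hours; endpoints were derived by simple linear interpolation of the resulting dose-response curve. GI50 is the concentration that inhibits growth by half. TGI: total growth inhibition.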

Key:
Experiment in all cases: NCI tumour cell line growth inhibition, 48 h
[1] = system: SK-MEL-5 melanoma
[2] = system: M19-MEL melanoma
[3] = system: HCT-15 colon
[4] = system: KM12 colon
[5] = system: ACHN renal
[6] = system: HT29 colon
[7] = system: SK-MEL-28 melanoma
[8] = system: MALME-3M melanoma
[9] = system: SNB-19 CNS
[10] = system: CCRF-CEM leukemia
[11] = system: SF-539 CNS
[12] = system: HCT-116 colon
[13] = system: IGROV1 ovarian
[14] = system: UACC-62 melanoma
[15] = system: U251 CNS
[16] = system: KM20L2 colon
[17] = system: HL-60(TB) leukemia
[18] = system: NCI-H522 lung
[19] = system: RXF 393 renal
[20] = system: NCI-H322M lung
[21] = system: LXFL 529 NSCLC
[22] = system: A498 renal
[23] = system: SK-MEL-2 melanoma
[24] = system: M14 melanoma
[25] = system: COLO 205 colon
[26] = system: DMS 114 small cell lung
[27] = system: SW-620 colon
[28] = system: RPMI-8226 leukemia
[29] = system: 786-0 renal
[30] = system: NCI-H23 lung
[31] = system: OVCAR-3 ovarian
[32] = system: SK-OV-3 ovarian
[33] = system: A549 NSCLC
[34] = system: HOP-92 NSCLC
[35] = system: K-562 leukemia
[36] = system: SN12C renal
[37] = system: SF-295 CNS
[38] = system: UO-31 renal
[39] = system: CAKI-1 renal
[40] = system: OVCAR-8 ovarian
[41] = system: EKVX NSCLC
[42] = system: SF-268 CNS
[43] = system: DMS 273 small cell lung
[44] = system: UACC-257 melanoma
[45] = system: LOX IMVI melanoma
[46] = system: SNB-75 CNS
[47] = system: TK-10 renal
[48] = system: HCC-2998 colon
[49] = system: MOLT-4 leukemia
[50] = system: HOP-62 NSCLC
[51] = system: OVCAR-4 ovarian
[52] = system: NCI-H460 lung
[53] = system: SR leukemia

Compound `CCCCOP(=O)(OCCCC)N1CCCC1C(=O)O` (stereo unspecified) has a GI50 [1] of over 100 µM, a TGI [1] of over 100 µM and a GI50 [2] of over 100 µM. For the same compound, the TGI [2] was over 100 µM, the GI50 [3] was over 100 µM and the TGI [3] was over 100 µM. For the same compound, the GI50 [4] was over 100 µM, the TGI [4] was over 100 µM and the GI50 [5] was over 100 µM. The TGI [5] was over 100 µM, the GI50 [6] was over 100 µM and the TGI [6] was over 100 µM. It also gave a GI50 [7] of over 100 µM, a TGI [7] of over 100 µM and a GI50 [8] of over 100 µM. It also gave a TGI [8] of over 100 µM, a GI50 [9] of over 100 µM and a TGI [9] of over 100 µM. It also gave a GI50 [10] of over 100 µM, a TGI [10] of over 100 µM and a GI50 [11] of over 100 µM. It also gave a TGI [11] of over 100 µM, a GI50 [12] of over 100 µM and a TGI [12] of over 100 µM. The GI50 [13] was over 100 µM, the TGI [13] was over 100 µM and the GI50 [14] was over 100 µM. For the same compound, the TGI [14] was over 100 µM, the GI50 [15] was over 100 µM and the TGI [15] was over 100 µM. For the same compound, the GI50 [16] was over 100 µM, the TGI [16] was over 100 µM and the GI50 [17] was over 100 µM. The TGI [17] was over 100 µM, the GI50 [18] was over 100 µM and the TGI [18] was over 100 µM. The GI50 [19] was over 100 µM, the TGI [19] was over 100 µM and the GI50 [20] was over 100 µM. It also gave a TGI [20] of over 100 µM, a GI50 [21] of over 100 µM and a TGI [21] of over 100 µM. It also gave a GI50 [22] of over 100 µM, a TGI [22] of over 100 µM and a GI50 [23] of over 100 µM. For the same compound, the TGI [23] was over 100 µM, the GI50 [24] was over 100 µM and the TGI [24] was over 100 µM. The GI50 [25] was over 100 µM, the TGI [25] was over 100 µM and the GI50 [26] was over 100 µM. For the same compound, the TGI [26] was over 100 µM, the GI50 [27] was over 100 µM and the TGI [27] was over 100 µM. The GI50 [28] was over 100 µM, the TGI [28] was over 100 µM and the GI50 [29] was over 100 µM. It also gave a TGI [29] of over 100 µM, a GI50 [30] of over 100 µM and a TGI [30] of over 100 µM. For the same compound, the GI50 [31] was over 100 µM, the TGI [31] was over 100 µM and the GI50 [32] was over 100 µM. It also gave a TGI [32] of over 100 µM, a GI50 [33] of over 100 µM and a TGI [33] of over 100 µM. The GI50 [34] was over 100 µM, the TGI [34] was over 100 µM and the GI50 [35] was over 100 µM. It also gave a TGI [35] of over 100 µM, a GI50 [36] of over 100 µM and a TGI [36] of over 100 µM. For the same compound, the GI50 [37] was over 100 µM, the TGI [37] was over 100 µM and the GI50 [38] was over 100 µM. For the same compound, the TGI [38] was over 100 µM, the GI50 [39] was over 100 µM and the TGI [39] was over 100 µM. It also gave a GI50 [40] of over 100 µM, a TGI [40] of over 100 µM and a GI50 [41] of over 100 µM. It also gave a TGI [41] of over 100 µM, a GI50 [42] of over 100 µM and a TGI [42] of over 100 µM. For the same compound, the GI50 [43] was over 100 µM, the TGI [43] was over 100 µM and the GI50 [44] was over 100 µM. For the same compound, the TGI [44] was over 100 µM, the GI50 [45] was over 100 µM and the TGI [45] was over 100 µM. For the same compound, the GI50 [46] was over 100 µM, the TGI [46] was over 100 µM and the GI50 [47] was over 100 µM. It also gave a TGI [47] of over 100 µM, a GI50 [48] of over 100 µM and a TGI [48] of over 100 µM. The GI50 [49] was over 100 µM, the TGI [49] was over 100 µM and the GI50 [50] was over 100 µM. The TGI [50] was over 100 µM, the GI50 [51] was over 100 µM and the TGI [51] was over 100 µM. It also gave a GI50 [52] of over 100 µM, a TGI [52] of over 100 µM and a GI50 [53] of over 100 µM. It also gave a TGI [53] of over 100 µM.
